Test [1] can be described thus: Selectivity ratio of IC50 for JAK3 over IC50 for JAK2.
Test [2] in a line: Selectivity ratio of IC50 for JAK1 over IC50 for JAK2.

For `O=C(NC1CC1)c1cc(Nc2nc(N3CCN(C(=O)Cc4ccccc4)CC3)nn3cccc23)n[nH]1`, the Ratio IC50 is 19 in test [1] and 0.75 in test [2].

With `COc1cc(F)c(CC(=O)N2CCN(c3nc(Nc4cc(C)n[nH]4)c4cccn4n3)CC2)c(F)c1`, the Ratio IC50 in test [1] worked out at 69; in test [2] it was 3.4.

For the molecule `Cc1cc(Nc2nc(N3CCN(C(=O)Cc4ccccc4C)CC3)nn3cccc23)n[nH]1`, the results for the Ratio IC50 in test [1] and in test [2] were 9.6 and 1.7, respectively.

`Cc1cc(Nc2nc(N3CCN(C(=O)Cc4ccc(F)cc4F)CC3)nn3cccc23)n[nH]1`: the Ratio IC50 in test [1] turned out to be 22; in test [2] it was 2.1.

Take `CC1(c2cc(Nc3nc(N4CCN(C(=O)Cc5ccccc5)CC4)nn4cccc34)n[nH]2)CC1`: the Ratio IC50 turned out to be 9 in test [1] and 7.7 in test [2].

In the case of `Cc1ccc(C(=O)N2CCN(c3nc(Nc4cc(C)[nH]n4)c4cccn4n3)CC2)cc1`, the Ratio IC50 amounted to 3.9 in test [1] and 1.1 in test [2].

Turning to `Cc1cc(Nc2nc(N3CCN(C(=O)Cc4ccccc4F)CC3)nn3cccc23)n[nH]1`, the Ratio IC50 in test [1] amounted to 17; in test [2], 3.8.

Turning to `COc1ccc(CC(=O)N2CCN(c3nc(Nc4cc(C)[nH]n4)c4cccn4n3)CC2)cc1`, the values for the Ratio IC50 in test [1] and in test [2] were 30 and 7.9, respectively.

For the molecule `Cc1cc(Nc2nc(N3CCN(C(=O)c4ccccc4C)CC3)nn3cccc23)n[nH]1`, the Ratio IC50 in test [1] was 33; in test [2] it was 12.

In the case of `Cc1cc(Nc2nc(N3CCN(C(=O)c4ccccc4)CC3)nn3cccc23)n[nH]1`, the Ratio IC50 in test [1] stood at 19; in test [2], 13.

`Cc1cc(Nc2nc(N3CCN(C(=O)CCc4ccccc4)CC3)nn3cccc23)n[nH]1`: the Ratio IC50 in test [1] worked out at 11; in test [2], 1.7.

As to `COc1ccccc1C(=O)N1CCN(c2nc(Nc3cc(C)[nH]n3)c3cccn3n2)CC1`, the Ratio IC50 in test [1] was 24; in test [2], 4.5.

On to `Cc1cc(Nc2nc(N3CCN(C(=O)c4ccccc4S(C)(=O)=O)CC3)nn3cccc23)n[nH]1`, for which the Ratio IC50 came out at 94 in test [1] and 3.9 in test [2].

Regarding `Cc1cc(Nc2nc(N3CCN(C(=O)c4ccc(C#N)cc4)CC3)nn3cccc23)n[nH]1`, the Ratio IC50 was determined as 1.3 in test [1] and 0.7 in test [2].

Regarding `Cc1cc(Nc2nc(N3CCN(C(=O)c4ccccc4Cl)CC3)nn3cccc23)n[nH]1`, the Ratio IC50 is 22 in test [1] and 3 in test [2].

For `Cc1ccc(CC(=O)N2CCN(c3nc(Nc4cc(C)[nH]n4)c4cccn4n3)CC2)cc1`, the Ratio IC50 stood at 20 in test [1] and 2.8 in test [2].

For `Cc1cc(Nc2nc(N3CCN(C(=O)Cc4ccccc4)CC3)nn3cccc23)n[nH]1`, the Ratio IC50 in test [1] was 19; in test [2] it was 4.5.

Turning to `CC(C)n1cnc(Nc2nc(N3CCN(C(=O)Cc4ccccc4)CC3)nn3cccc23)c1`, the Ratio IC50 in test [1] was 15; in test [2], 1.3.

On to `Cc1cc(Nc2nc(N3CCN(C(=O)c4ccccc4Br)CC3)nn3cccc23)n[nH]1`, for which the Ratio IC50 in test [1] came to 47; in test [2], 9.1.

Take `Cc1cc(Nc2nc(N3CCN(C(=O)c4ccccc4C#N)CC3)nn3cccc23)n[nH]1`: the Ratio IC50 in test [1] is 27; in test [2] it was 1.7.

On to `Cc1cc(Nc2nc(N3CCN(C(=O)Cc4ccc(Cl)cc4)CC3)nn3cccc23)n[nH]1`, for which the Ratio IC50 in test [1] is 16.

These data come from ChEMBL document CHEMBL1681645, “Pyrrolo[1,2-f]triazines as JAK2 inhibitors: achieving potency and selectivity for JAK2 over JAK3” (Bioorg Med Chem Lett, 2011).
